# Measured affinities in a library of Ab-95 light chain variants

Binding partner: SARS-CoV-2 spike HR2 peptide, sequence PDVDLGDISGINAS.

Each scFv is VH, three GGGGS repeats, VL, as in the parent Ab-95, and differs from it in the CDRs of the light chain only.
VH: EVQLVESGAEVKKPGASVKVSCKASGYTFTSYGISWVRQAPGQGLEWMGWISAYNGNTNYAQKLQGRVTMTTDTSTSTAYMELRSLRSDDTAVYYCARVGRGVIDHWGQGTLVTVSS
VL: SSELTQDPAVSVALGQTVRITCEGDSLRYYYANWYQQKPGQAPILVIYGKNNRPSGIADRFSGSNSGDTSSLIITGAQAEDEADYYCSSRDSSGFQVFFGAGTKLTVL

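In library AAYL52, one, two or three CDR residues were substituted; doubles and triples were drawn at random. AlphaSeq pools MATa yeast showing the antibodies with MATalpha yeast showing the peptide. The frequency of each diploid, read from paired DNA barcodes, reflects how well the two displayed proteins bind. The ratio of observed to expected reads was calibrated, replicate by replicate, on BCL2-family standards whose Kd was known from biolayer interferometry. There are three technical replicates.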

The parent's light chain CDRs are EGDSLRYYYAN, GKNNRPS, SSRDSSGFQVF; each variant's own CDRs replace them letter for letter. The read-out is the apparent dissociation constant on a log10 scale (nM): the lower, the stronger. Where no diploid with the target was found in that replicate, the entry reads "nd": below detection, most likely a poor binder, though not proof of it.

CDR-L1 | CDR-L2 | CDR-L3 | log10 Kd, replicates | control signals
ENDSLRYYYAN | GKNNRRS | SSRDSSGDQVF | 3.50 / 4.50 / nd | 2/9 (3.74)
EGDSLRYYYNN | GKNNRPM | SSRDSSGFQVF | 3.05 / 2.68 / 2.94 | 3/9 (4.70)
EGDSLRYYYGN | GKNIRPS | SSRDSSGFQVW | 2.01 / 2.67 / 1.99 | 2/9 (3.67)
EGDSLRYYYGN | GKNNRVS | SSRDSSGFQVF | 3.67 / 3.24 / nd | 3/9 (4.60)
EGDSLRYYYAG | GKNNRPS | SSRDSSGFQVF | 5.48 / nd / 3.22 | 4/9 (4.23)
EGDSLRYIYAP | GKNNRPS | SSRDSSAFQVF | nd / 5.64 / nd | 4/9 (3.64)
EGDSLRYYYGN | GKNNRPS | SSRDSSGAQVF | 2.72 / 2.66 / 2.58 | 3/9 (3.45)
EGDSLRYYYAN | GKNNRPS | SSRNSIGFTVF | 2.92 / 4.23 / 2.50 | 5/9 (3.95)
EGDSHNYYYCN | GKNNRPS | SSRDSSGFQVF | 3.04 / 3.94 / nd | 0/9
EGDSLRYTYAN | GWNNRPS | SSRDSSGCQVF | 2.68 / 3.05 / 2.88 | 3/9 (4.82)
EGDSLREYYAN | GKNNRGS | SSRDSRGFQVF | 3.60 / 2.89 / 3.07 | 3/9 (3.76)
EGDSLRYYYAN | GKDNRPS | SSRLSSGFWVF | 4.85 / nd / nd | 1/9 (3.88)
EGDSLRYYYAN | GKNIRPS | QSRDSSGFQVQ | nd / nd / nd | 1/9 (3.91)
EGDSLRYYYAN | GKNNRSS | SSLDSSMFQVF | nd / nd / nd | 1/9 (2.47)
EGDSLRYYYAN | PKNNRPS | SSCDSSGHQVF | nd / nd / nd | 3/9 (3.56)
EVDSLRYYYAN | GKNNGPS | SSRDSSTFQVF | nd / nd / nd | 5/9 (4.12)
EGDSLRYYYAN | GKNNRIS | SSRDKSGFYVF | 3.43 / 3.76 / 4.35 | 3/9 (4.47)
EGDSLRYYYPN | GKNNRPS | SSRVSSGFQVA | 2.89 / 2.69 / 2.35 | 4/9 (4.23)
EGDSLTHYYAN | GKNNRPS | SSRDSSIFQVF | 3.94 / 3.25 / 3.02 | 6/9 (3.83)
EGDSLRYYYAN | GKINRPS | SSRDPSGAQVF | 3.91 / 4.69 / nd | 2/9 (4.20)
EGDSLRYTYAN | FPNNRPS | SSRDSSGFQVF | 3.74 / 4.93 / nd | 2/9 (4.43)
EGDSLEYYYAN | GKNNRPS | SSRDSSGFQVF | 2.20 / 2.64 / 2.00 | 5/9 (3.95)
EGDSLRYYYAN | VKNVMPS | SSRDSSGFQVF | nd / 3.38 / nd | 3/9 (3.86)
EGTRLRYYYAN | GKNNRPS | SSRDSSGFQVS | 3.61 / 2.99 / nd | 4/9 (4.70)
EGDYLMYYYAW | GKNNRPS | SSRDSSGFQVF | nd / 5.88 / 4.56 | 4/9 (4.44)
EGDSLREYYAN | GPNNRPS | SSRDSSGFQVF | 2.59 / 2.37 / 2.61 | 1/9 (5.19)
EGESLRYYYAN | NKNNRPS | SSRDSSAFQVF | 3.38 / nd / 3.42 | 1/9 (4.48)
EGDSLRYYYAN | GCNNGLS | SSRDSSGFQVF | nd / nd / nd | 1/9 (4.02)
EGDSLRYYYAN | GFNNRPS | SSRDSSGFQEH | 3.92 / 4.62 / nd | 1/9 (4.30)
EGDSLRYYYAN | GKHARPS | SSRDWSGFQVF | 3.32 / 3.56 / 4.24 | 5/9 (4.25)
EGDSRRRYSAN | GKNNRPS | SSRDSSGFQVF | 2.74 / 3.75 / 3.28 | 1/9 (3.54)
EMDSLPYYYAN | GKFNRPS | SSRDSSGFQVF | nd / 3.48 / nd | 4/9 (3.69)
EGDSLRYYYHN | GKNNRPS | ISRDSSGFQVI | nd / nd / nd | 2/9 (3.44)
EGDSLRIAYAN | GKNNRPS | SSSDSSGFQVF | 4.10 / nd / nd | 6/9 (3.53)
EGDSLRMYYAN | GKNNRPS | YSRDSSGFQVF | 2.52 / 2.53 / 3.91 | 5/9 (3.69)
EGDFLRYYYAN | GKNNWPS | SSRDSSGFQVF | 4.53 / 5.70 / nd | 3/9 (3.95)
EGDSLRYYYGN | GKNNRPS | SSRDSSGFFVT | 4.76 / nd / nd | 4/9 (3.92)
NGDSLRYYYCQ | GKNNRPS | SSRDSSGFQVF | 3.27 / 3.29 / 3.27 | 3/9 (3.95)
EGDSLRYYYAN | GKNERKS | SSRDSSGFWVF | 2.86 / 2.77 / 2.95 | 3/9 (3.53)
EFDSLRYYYAN | GKNNPPS | SSRDISGFQVF | nd / 4.33 / 3.84 | 2/9 (3.16)

Excerpt, the final 3 entries:

CDR-L1 | CDR-L2 | CDR-L3 | log10 Kd, replicates | control signals
NGDSLRYYYCQ | GKNNRPS | SSRDSSGFQVF | 3.27 / 3.29 / 3.27 | 3/9 (3.95)
EGDSLRYYYAN | GKNERKS | SSRDSSGFWVF | 2.86 / 2.77 / 2.95 | 3/9 (3.53)
EFDSLRYYYAN | GKNNPPS | SSRDISGFQVF | nd / 4.33 / 3.84 | 2/9 (3.16)

As a blank, each scFv also met three strains without target: over library AAYL52, 28% of these pairings were detected, typically at 3.91 and seldom below 2.90. The control count says in how many pairings with the empty strains this scFv gave a signal, with their mean in brackets. For reference, the parent read 2.31 as the reference entry and 2.25 as a member of this library.

Values reported by Engelhart et al. 2022, doi:10.1038/s41597-022-01779-4 (FLAb copy).